The source of these data is ChEMBL document CHEMBL3804774, “Discovery of G Protein-Biased EP2 Receptor Agonists” (ACS Med Chem Lett, 2016).

Chains of the proteins cited; added tags and fusions are not shown. Lines headed by an entry give the natural chain unless they say otherwise; changes in a name come on top.
UniProt P43116: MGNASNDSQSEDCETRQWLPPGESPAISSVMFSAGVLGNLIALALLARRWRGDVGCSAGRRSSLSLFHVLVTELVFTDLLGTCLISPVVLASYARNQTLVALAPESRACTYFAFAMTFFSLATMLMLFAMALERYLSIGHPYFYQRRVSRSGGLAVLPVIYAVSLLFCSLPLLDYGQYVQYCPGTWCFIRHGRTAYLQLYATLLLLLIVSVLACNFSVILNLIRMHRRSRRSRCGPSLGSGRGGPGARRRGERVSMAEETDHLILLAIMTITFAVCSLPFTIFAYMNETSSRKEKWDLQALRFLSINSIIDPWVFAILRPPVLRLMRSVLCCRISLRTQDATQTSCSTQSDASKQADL

Test [1] concerns the target T1, Prostaglandin E2 receptor EP2 subtype (Homo sapiens, UniProt P43116). Kind of test: Agonist activity at human EP2 receptor expressed in CHO cells assessed as increase in intracellular cAMP level after 30 mins by HTRF method. The format is functional, cell-based.
Test [2] has as its target T1, Prostaglandin E2 receptor EP2 subtype. Kind of test: Agonist activity at PK2-tagged human EP2 receptor expressed in HEK293 cells assessed as induction of EA-tagged beta-arrestin recruitment incubated for 90 mins by beta-galactosidase reporter gene assay. The test is classed as cell-based. (Arrestin recruitment assays detect the binding of arrestin to an activated receptor.)

The structures appear in SMILES notation.

By EC50 is commonly meant the concentration at which the effect is half-maximal. Regarding `CCCCC[C@H](O)/C=C/[C@H]1[C@H](O)CC(=O)[C@@H]1C/C=C\CCCC(=O)O` [DINOPROSTONE], the EC50 in test [1] was 1.9 nM; in test [2], 346 nM.
